# Reference: patent publication US20060211651A1, “Persulfated oligosaccharide acting on selectins and chemokine” (Taisho Pharmaceutical Co., Ltd., priority 2002, published 2006)
# Columns and labels:
# monomeric L-selectin = biological target: T1, monomeric L-selectin (Homo sapiens, UniProt P14151); experiment: BIAcore surface plasmon resonance, immobilized glycosaminoglycan vs monomeric L-selectin; type: binding; conditions: GAG immobilized, 25° C.
# T1 construct: purchased Genzyme-Techne
# T1 sequence (P14151 39-332 limits assumed): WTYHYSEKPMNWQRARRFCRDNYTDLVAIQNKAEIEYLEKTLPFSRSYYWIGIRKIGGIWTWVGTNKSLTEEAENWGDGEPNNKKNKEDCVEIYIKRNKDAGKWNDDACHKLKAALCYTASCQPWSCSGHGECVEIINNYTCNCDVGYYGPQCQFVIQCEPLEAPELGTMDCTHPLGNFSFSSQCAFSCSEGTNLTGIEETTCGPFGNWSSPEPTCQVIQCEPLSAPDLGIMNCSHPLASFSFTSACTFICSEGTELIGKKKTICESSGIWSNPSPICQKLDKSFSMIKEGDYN
# Method: (§1) Affinity kinetics of the interaction between various CS/DS chains and each of L-selectin, P-selectin, CD44 and chemokine were examined by surface plasmon resonance using BIAcore™ biosensor [manufactured by BIAcore AB].
# (§2) All experiments were performed at 25° C. At stages of washing and dissociation, buffer C (20 mM HEPES-NaOH, 0.15M NaCl, 1 mM CaCl2, 1 mM MgCl2, pH6.8) was used as a running buffer.
# (§3) First, about 1.8 to 2.0 kiloresonance unit (1 kiloresonance unit=1 ng/mm^2) of streptavidin were covalently immobilized onto B1 sensor chip via a primary amine group using an amine coupling kit [manufactured by Amercham-Bioscience] according to the instruction provided by the manufacturer. […]
# (§4) Binding assay was performed by injecting continuously each of various concentrations of secondary lymphoid tissue chemokine, γ-interferon inducible protein-10, stromal cell-derived factor-1β, monomeric L-selectin [manufactured by Genzyme-Techne], monomeric P-selectin [manufactured by Genzyme-Techne] and monomeric CD44, to a glycosaminoglycan-coupled sensor tip at a flow rate of 30 μl/min for 0 to 90 seconds, and then injecting a running buffer thereto. A response in resonance unit was recorded as a function of a time. […]
# (§5) An affinity kinetic parameter was determined by BIAevaluation 3.0 software [manufactured by Pharmacia Biosensor] using a single site binding model. […]
# monomeric P-selectin = biological target: T2, monomeric P-selectin (Homo sapiens, UniProt P16109); experiment: BIAcore surface plasmon resonance, immobilized glycosaminoglycan vs monomeric P-selectin; type: binding; conditions: GAG immobilized, 25° C.
# T2 construct: purchased Genzyme-Techne
# T2 sequence (P16109 42-771 limits assumed): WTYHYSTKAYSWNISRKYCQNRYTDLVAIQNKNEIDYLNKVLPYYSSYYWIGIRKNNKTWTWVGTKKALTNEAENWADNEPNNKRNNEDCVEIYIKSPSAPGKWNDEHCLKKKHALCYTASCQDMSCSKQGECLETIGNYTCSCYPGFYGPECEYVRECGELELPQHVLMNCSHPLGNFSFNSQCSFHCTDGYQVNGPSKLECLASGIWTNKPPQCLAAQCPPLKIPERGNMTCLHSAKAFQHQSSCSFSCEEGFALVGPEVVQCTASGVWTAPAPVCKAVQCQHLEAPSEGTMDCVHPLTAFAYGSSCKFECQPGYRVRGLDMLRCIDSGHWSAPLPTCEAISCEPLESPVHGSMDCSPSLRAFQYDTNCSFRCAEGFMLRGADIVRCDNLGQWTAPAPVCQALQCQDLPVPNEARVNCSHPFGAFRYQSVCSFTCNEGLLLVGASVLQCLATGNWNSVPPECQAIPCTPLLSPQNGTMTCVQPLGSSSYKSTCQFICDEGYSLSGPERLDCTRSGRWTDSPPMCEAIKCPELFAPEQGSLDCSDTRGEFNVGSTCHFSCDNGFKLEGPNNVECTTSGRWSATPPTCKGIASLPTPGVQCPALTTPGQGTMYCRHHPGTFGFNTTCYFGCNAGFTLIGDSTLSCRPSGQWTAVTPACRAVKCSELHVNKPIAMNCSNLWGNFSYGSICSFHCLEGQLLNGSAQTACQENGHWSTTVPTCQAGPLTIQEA
# Method: as §1, §2, §3, §4, §5
substance,measurement,setting,value
dermatan polysulfate [DPS],Kd,monomeric L-selectin,21.1 nM
same,Kd,monomeric P-selectin,27.7 nM
